Here are results for seven compounds from article PMC12261321, “Inhibitors of the Bacterioferritin Ferredoxin Complex Dysregulate Iron Homeostasis and Kill and Biofilm-Embedded Cells” (ACS Infectious Diseases, 2025).

The structures appear in SMILES notation. Converted amounts (≈) assume the structure as drawn.

A short description of series [1]: Determination of compound aqueous solubility in M63 media. Particulars: in M63 media at 35 °C.
A short description of series [2]: Stability in aqueous solution. The series is classed as physicochemical.

On to `O=C1NC(=O)c2c(NCc3ccc(Cl)cc3O)cccc21`, for which the Solubility – broadly, how much of the substance goes into solution per volume – in series [1] is recorded as 60 µM (≈ 18.2 µg/mL).
As to `O=C1NC(=O)c2c(NCc3cccc(O)c3O)cccc21`, the “stability in aqueous solution” value in series [2] is “stable in aqueous solution”. Further, the Solubility in series [1] is given as 200 µM (≈ 56.9 µg/mL).
In series [1], `Cc1ccc(O)c(CNc2cccc3c2C(=O)NC3=O)c1` yielded a Solubility of 120 µM (≈ 33.9 µg/mL).
Take `O=C1NC(=O)c2c(NCc3c(O)ccc(Br)c3F)cccc21`: the Solubility in series [1] is 30 µM (≈ 11 µg/mL).
The same measure, in the same setting: with `O=C1NC(=O)c2c(NCc3cc(F)cc(F)c3O)cccc21` the figure was 100 µM (≈ 30.4 µg/mL); with `O=C1NC(=O)c2c(NCc3ccc(F)cc3O)cccc21`, 150 µM (≈ 42.9 µg/mL).
In series [1], `O=C1NC(=O)c2c(NCc3cc(Cl)cc(Cl)c3O)cccc21` came in with a Solubility of 40 µM (≈ 13.5 µg/mL).
